Experimental data: article PMC6326798 (2018)

B1: hsCENP-H WT (recombinant, GST pull-down) [human] / GST-hsCENP-K^FL (hsCENP-K full length) [human] (parent complex)
chain 1: MEEQPQMQDADEPADSGGEGRAGGPPQVAGAQAACSEDRMTLLLRLRAQTKQQLLEYKSMVDASEEKTPEQIMQEKQIEAKIEDLENEIEEVKVAFEIKKLALDRMRLSTALKKNLEKISRQSSVLMDNMKHLLELNKLIMKSQQESWDLEEKLLDIRKKRLQLKQASESKLLEIQTEKNKQKIDLDSMENSERIKIIRQNLQMEIKITTVIQHVFQNLILGSKVNWAEDPALKEIVLQLEKNVDMM
chain 2: MNQEDLDPDSTTDVGDVTNTEEELIRECEEMWKDMEECQNKLSLIGTETLTDSNAQLSLLIMQVKCLTAELSQWQKKTPETIPLTEDVLITLGKEEFQKLRQDLEMVLSTKESKNEKLKEDLEREQRWLDEQQQIMESLNVLHSELKNKVETFSESRIFNELKTKMLNIKEYKEKLLSTLGEFLEDHFPLPDRSVKKKKKNIQESSVNLITLHEMLEILINRLFDVPHDPYVKISDSFWPPYVELLLRNGIALRHPEDPTRIRLEAFHQ

Variants of: B1
Assay: GST pull-down; parent: 1; read off a plot

| Variant | ratio to parent |
| --- | --- |
| chain 1 L219A, chain 1 V225A | ~0.7 |
| chain 1 L219A | ~0.82 |
| chain 1 L219A, chain 1 L233A | ~0.61 |
| chain 1 L233A | ~0.89 |

Second part, the variant after the results:

| ratio to parent | Variant |
| --- | --- |
| ~1.1 | chain 1 L238A |
| ~0.7 | chain 1 V225A, chain 1 L233A |
| ~0.87 | chain 1 V225A |
| ~1.1 | chain 1 W227A |
